Assay results: publication PMC9694488, “Amyloid beta and its naturally occurring N-terminal variants are potent activators of human and mouse formyl peptide receptor 1” (The Journal of Biological Chemistry, 2022)

Chains of the proteins cited; added tags and fusions are not shown. Lines headed by an entry give the natural chain unless they say otherwise; changes in a name come on top.
UniProt P05067: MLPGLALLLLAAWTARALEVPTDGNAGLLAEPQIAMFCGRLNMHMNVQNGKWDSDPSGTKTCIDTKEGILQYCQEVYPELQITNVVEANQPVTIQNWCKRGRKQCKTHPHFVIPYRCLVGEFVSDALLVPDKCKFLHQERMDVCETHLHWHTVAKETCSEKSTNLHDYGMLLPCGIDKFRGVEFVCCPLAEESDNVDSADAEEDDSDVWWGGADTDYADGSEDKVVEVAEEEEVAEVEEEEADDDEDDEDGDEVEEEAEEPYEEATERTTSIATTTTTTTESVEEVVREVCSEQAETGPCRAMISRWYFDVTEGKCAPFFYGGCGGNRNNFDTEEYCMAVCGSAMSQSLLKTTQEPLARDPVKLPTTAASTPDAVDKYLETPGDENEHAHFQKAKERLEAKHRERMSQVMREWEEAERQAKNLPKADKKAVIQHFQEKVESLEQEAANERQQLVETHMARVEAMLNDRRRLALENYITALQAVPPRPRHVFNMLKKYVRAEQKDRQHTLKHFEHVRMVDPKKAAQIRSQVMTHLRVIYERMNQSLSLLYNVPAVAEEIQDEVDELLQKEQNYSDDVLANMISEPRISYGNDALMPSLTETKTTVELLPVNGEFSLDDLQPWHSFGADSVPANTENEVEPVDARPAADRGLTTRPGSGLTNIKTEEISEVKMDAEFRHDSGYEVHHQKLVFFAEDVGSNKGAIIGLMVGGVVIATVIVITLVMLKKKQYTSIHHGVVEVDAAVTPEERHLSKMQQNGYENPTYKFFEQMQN

Tested on: human and mouse FPRs
Assay: Ca2+ imaging, FPR-transfected HEK293T (several human and mouse FPRs taken together)
Format: cell-based
Conditions: 10 μM; n = 3, N = 1

Substance	Ca2+ mobilization, human and mouse FPRs
Aβ1-10: C-terminally abridged Aβ fragment, from Anaspec/MoBiTec (DAEFRHDSGY; Amyloid-beta protein 42; UniProt P05067 672-681, looked up, fragment)	failed to induce any Ca^2+ mobilization
Aβ1-16: C-terminally abridged Aβ fragment, from Anaspec/MoBiTec (DAEFRHDSGYEVHHQK; Amyloid-beta protein 42; UniProt P05067 672-687, looked up, fragment)	failed to induce any Ca^2+ mobilization
